Laboratory results as given in patent publication US20140205660A1, “Abscisic acid against cancer” (priority 2013, published 2014).
Like-named read-outs stand apart in the source and are kept apart here.

What was measured:
[1] = cited from earlier work
[2] = system: Chinese hamster ovary (CHO) cells; settings: cited from earlier work
[3] = ABA ionization versus pH from HPLC retention factors (Kelen 2004); type: physicochemical; settings: rounded value in brackets
Source text: Research of Kelen et al. 2004, denominated “Separation of Abscisic acid, Indole-3-acetic, Gibberellic Acid in 99r (Vitis berlandieri×Vitis rupestris) and Rose Oil (Rosa damascena mill.) by Reversed Phase Liquid Chromatography” may help to determine and verify ABA dissociation according the pH. In this study it is considered that, retention in the mobile phase of carboxylic groups which are contained in these hormones depends on the percentage of ionized and non-ionized species. […] Measurement of ABA pK value in the assay was calculated (pK=5.82) at 30% of acetonitrile. The ABA dissociation in the assay can be verified by using the Henderson-Hasselbalch equation as follows:
pH=pk+log [BASE/ACID]→4=5.82+log [BASE/ACID]
−1.82=log [BASE/ACID]→antilog(−1.82)=[BASE/ACID]
The result of the calculation is a proportion as follows:
Also retention factors can be transformed in percent of non-ionized and ionized forms as follows: […]

[4] = different animal experiments; cited from earlier work
[5] = rat; cited from earlier work
[6] = rats fed with diet containing ABA; cited from earlier work
[7] = cited from earlier work; remark: listed apart in the source
[8] = cited from earlier work; remark: listed apart in the source
[9] = cited from earlier work; remark: listed apart in the source
[10] = in vivo; cited from earlier work

[S-(Z,E)]-5-(1-Hydroxy-2,6,6-trimethyl-4-oxo-2-cyclohexen-1-yl)-3-methyl-2,4-pentadienoic acid [ABA]
pK ([1]; at 30% of acetonitrile (Kelen 2004)): 5.82 | pK ([1]; value used in Henderson-Hasselbalch equation): 4.7 | ABA activity retained ([2]; after 24 hours of incubation with CHO cells): about 60% | ABA activity retained ([2]; after 48 hours of incubation with CHO cells): around 23% | % OF IONIZED (ABA^− + H^+) ([3]; pH 5): 3.5 (0) % | % OF NON-IONIZED (ABAH) ([3]; pH 5): 96.5 (100) % | % OF IONIZED (ABA^− + H^+) ([3]; pH 5.5): 27.8 (30) % | % OF NON-IONIZED (ABAH) ([3]; pH 5.5): 72.1 (70) % | % OF IONIZED (ABA^− + H^+) ([3]; pH 6.0): 56.4 (60) % | % OF NON-IONIZED (ABAH) ([3]; pH 6.0): 43.5 (40) % | % OF IONIZED (ABA^− + H^+) ([3]; pH 7.0): 86.4 (90) % | % OF NON-IONIZED (ABAH) ([3]; pH 7.0): 13.5 (10) % | side effects [4]: no side effects | acute oral median lethal dose (LD50) [5]: > 5000 mg/kg | ABA concentration in brain tissue [6]: 248-429 ng/100 g of fresh weight | half-life ([7]; administered orally): about 4 hours | time until activity detectable in circulation ([7]; injected intraperitoneal): ≤ 30 min | ABA degradation ([8]; adding any type of antioxidant): zero | ABA degradation ([8]; ambient temperature, 21 months): 75% | ABA degradation ([8]; brown PE bottles, no antioxidant or UV absorbent, 33 days at 53 degrees centigrade): 8% | solubility in methanol ([9]; methanol): 50 mg/mL | solubility ([9]; organic solvents): soluble in many organic solvents | effect in animals and treated cells [10]: very little effect
